Tests used:
Format in all cases: functional
Klebsiella pneumoniae [1] = assay: Antimicrobial activity against blaKPC-positive Klebsiella pneumoniae S1 by broth microdilution method
Klebsiella pneumoniae [2] = assay: Antimicrobial activity against blaKPC-positive Klebsiella pneumoniae S4 by broth microdilution method
Klebsiella pneumoniae [3] = assay: Antimicrobial activity against blaKPC-positive Klebsiella pneumoniae S11 by broth microdilution method

Measured: MIC

GENTAMICIN
0.5 µg/mL: all assays above
